Results on 2 molecules are retold here after ChEMBL document CHEMBL5385922 (J Med Chem, 2024).

The chains behind the UniProt entries cited, without tags or fusion partners. Where a name states a change or a piece, a line headed by the entry shows the natural chain unless it says otherwise.
UniProt P07237: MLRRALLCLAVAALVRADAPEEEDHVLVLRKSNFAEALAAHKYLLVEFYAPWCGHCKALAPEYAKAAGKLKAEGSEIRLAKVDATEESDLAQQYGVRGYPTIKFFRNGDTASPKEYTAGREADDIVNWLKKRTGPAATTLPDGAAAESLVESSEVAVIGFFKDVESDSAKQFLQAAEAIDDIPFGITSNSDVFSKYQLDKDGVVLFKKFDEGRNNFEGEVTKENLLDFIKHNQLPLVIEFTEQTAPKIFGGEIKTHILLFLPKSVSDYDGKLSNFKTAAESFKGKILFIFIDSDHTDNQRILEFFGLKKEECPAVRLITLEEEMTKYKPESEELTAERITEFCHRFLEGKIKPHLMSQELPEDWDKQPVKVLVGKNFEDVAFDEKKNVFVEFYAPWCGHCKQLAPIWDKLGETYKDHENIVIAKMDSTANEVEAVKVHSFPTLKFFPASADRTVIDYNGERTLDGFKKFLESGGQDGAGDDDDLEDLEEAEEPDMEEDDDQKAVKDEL

For assay [1], the target named is Protein disulfide-isomerase (Homo sapiens, UniProt P07237). Put plainly: Covalent inhibition of human recombinant PDI assessed as inhibition of E-GSH formation using Di-E-GSSG as substrate at 10 uM measured for 60 mins in presence of DTT and 1 mM GSH by fluorescence based analysis. The method, boiled down: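 Human rPDI incubated with compounds at 10 μM in the presence of DTT (5 μM) or GSH (1 mM). PDI activity read by Di-E-GSSG assay (E-GSH fluorescence). Mean ± SEM of three independent experiments.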

The test system of another assay is Platelet. Put plainly: Antiplatelet activity in human platelets assessed as inhibition of collagen-induced platelet aggregation by turbidimetric analysis. The assay is classed as functional, cell-based.

Activity calls are given as the source filed them. The rule behind the calls is not given here.

On to `O=C1C=CC(=O)c2c(O)cccc21`, for which the inhibition entry in assay [1] was “Active”.

Broadly, the IC50 is the concentration that gives 50% inhibition. In the case of `CC(=O)Oc1ccccc1C(=O)O` [ASPIRIN], the IC50 in the assay with Platelet turned out to be 157 µM.
